Laboratory results taken from ChEMBL document CHEMBL4680133, “Novel nitroimidazole derivatives evaluated for their trypanocidal, cytotoxic, and genotoxic activities” (Eur J Med Chem, 2020).

Legend:
Conditions in all cases: raw264.7, 24 h
[1] = tested on: RAW264.7; assay: Genotoxicity in mouse RAW264.7 cells assessed as number of micronucleated cells at 0.5 uM measured after 24 hrs by micronucleus test (reference value: 12 to 15)
[2] = tested on: RAW264.7; assay: Genotoxicity in mouse RAW264.7 cells assessed as survival at 0.5 uM measured after 24 hrs by micronucleus test (reference value: 100%)
[3] = tested on: RAW264.7; assay: Genotoxicity in mouse RAW264.7 cells assessed as mitotic index at 0.5 uM measured after 24 hrs by micronucleus test (reference value: 40 to 249)

CN(N=O)C(=N)N[N+](=O)[O-]
Activity [1]: 25 | Survival [2]: 99% | Activity index [3]: 35
